Measurements: US5902583A, “Genetic induction of receptors for targeted radiotherapy” (priority 1997, dated 1999)

Protein sequences, listed by entry. Tags and fused reporters are not part of them. Lines headed by an entry give the natural chain unless they say otherwise; changes in a name come on top.
UniProt P21729: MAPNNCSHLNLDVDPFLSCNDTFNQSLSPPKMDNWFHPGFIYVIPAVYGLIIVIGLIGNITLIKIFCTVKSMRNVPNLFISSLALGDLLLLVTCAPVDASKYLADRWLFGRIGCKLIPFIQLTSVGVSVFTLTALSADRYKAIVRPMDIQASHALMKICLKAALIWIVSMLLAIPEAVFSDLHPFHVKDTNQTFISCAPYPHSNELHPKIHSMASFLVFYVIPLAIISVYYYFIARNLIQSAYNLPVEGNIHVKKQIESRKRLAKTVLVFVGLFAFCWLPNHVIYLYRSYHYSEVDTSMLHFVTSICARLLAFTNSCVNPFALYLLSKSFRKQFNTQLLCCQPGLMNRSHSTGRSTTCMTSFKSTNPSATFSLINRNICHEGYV

Target: T1, murine gastrin releasing peptide receptor (mGRPr) (Mus musculus, UniProt P21729)
T1 construct: expressed in transfected cells; host or cells: human carcinoma lines A427, D54MG, U251MG, LS174T, WiDr, OVCAR-3, OV-4, SKOV3.ip1 infected with AdCMVGRPr; positive control: mouse fibroblast line BNR-11 stably expressing mGRPr
Assay: Live-cell binding of radiolabeled bombesin after AdCMVGRPr infection of human carcinoma cell lines
Protocol: Infections with recombinant adenoviruses were performed as previously described. Cells were harvested for radiolabeled binding assay 48 hours following adenoviral mediated infection by removal at 37° C. with 4 mM EDTA, 0.05% KCl. Detached cells were washed once with 0.1% BSA/PBS pH 7.2, enumerated and resuspended at 1×10^7 per ml. Each set of cells was aliquoted into 100 μl samples in duplicate polystyrene test tubes following the addition of 100,000 cpm (100 μl) of [^125 I]-Tyr-bombesin (DuPont NEN Research Products, Boston, Mass.). […] The solutions were mixed at room temperature for 1 hour, rinsed with PBE and centrifuged at 1700×g for 10 min. The supernatant was removed and the cells were counted in a gamma counter to determine the amount of bound radioactivity. Radioactivity bound was then plotted as the percent cpm bound to the cells versus the total amount of cpm added. The human ovarian carcinoma cell line SKOV3.ip1 expresses the cell surface receptor for erbB-2. Therefore, a non-internalizing monoclonal antibody (e21) against a cell surface epitope of erbB-2 was employed (provided by C. Richter King, Oncologix, Inc., Gaithersburg, Md.). The e21 antibody was ^125 I-labeled using the lodogen method and utilized in an in vitro live-cell binding assay with the SKOV3.ip1 cells. Cells were harvested as described above and incubated for 1 hour with 100 μl of a 2 μg/ml solution of ^125 I-labeled e21 antibody. Cells were washed and bound radioactivity determined as described above.
The obtained virus was structurally verified through polymerase chain reaction and restriction endonuclease digestion analysis (data not shown). Functional validation of the virus was performed through in vitro gene delivery methods. Human lung, colon and ovarian carcinoma cell lines, along with human glioma cell lines, were infected with 10 or 100 pfu/cell of AdCMVGRPr, or 100 pfu/cell of a control virus, AdCMVLacZ.

For “[^125 I]-Tyr4 -bombesin [[^125 I]-Tyr-bombesin]”, the “added radioactivity bound to the cells” value (A427, D54MG and U251MG, 10 or 100 pfu/cell AdCMVGRPr) was 64.6-77.2%, the added radioactivity bound (LS174T and WiDr, 10 pfu/cell AdCMVGRPr) was “approximately 30%” and the “binding of the radiolabeled bombesin peptide” value (LS174T and WiDr, 100 pfu/cell AdCMVGRPr) was 60%. It also gave an added radioactivity bound (OV-4, 10 pfu/cell AdCMVGRPr) of 20%, an added radioactivity bound (OV-4, moi 100 AdCMVGRPr) of 59.7% and an added radioactivity bound (OVCAR-3, 10 pfu/cell AdCMVGRPr) of 52.1%. It also gave an added radioactivity bound (OVCAR-3, 100 pfu/cell AdCMVGRPr) of 80.9%, an added radioactivity bound (OVCAR-3, uninfected) of 32% and an added radioactivity bound (SKOV3.ip1, 10 pfu/cell AdCMVGRPr) of 18.4%. The added radioactivity bound (SKOV3.ip1, moi 100 AdCMVGRPr) was 70.6% and the “binding of the radiolabeled peptide” value (human glioma cell lines, AdCMVLacZ) was 3-8%.
